In patent US11311624B2, “Inhibitors of MEK/PI3K, JAK/MEK, JAK/PI3K/mTOR and MEK/PI3K/mTOR biological pathways and methods for improving lymphatic uptake, bioavailability, and solubility of therapeutic compounds” (THE REGENTS OF THE UNIVERSITY OF MICHIGAN, priority 2017, dated 2022):

Experiment: In vivo lymph targeting of prodrug ST-65

For COc1ccc(-c2ccc3c(N4CCOCC4C)nc(N4CCOCC4C)nc3n2)cc1COC(=O)CCOCCOCCOCCONC(=O)c1ccc(F)c(F)c1Nc1ccc(I)cc1F (stereo not shown), the lymphatic targeting was “high lymphatic targeting”.
